In this data set the test system is rats. Kind of data set: Acute Oral Toxicity--Rat. To be noted: in vivo.

Regarding `CO[C@H]1CO[C@H]2[C@@H]1OC[C@H]2OC` [Dimethyl isosorbide, dimethyl isosorbide], the “acute oral (LD50) toxicity” value is on record as “about 5.63 ml per kg of body weight” and the survival result is listed as “All of the 20 rats given the four low dosages survived”.

These data come from US4228162A, “Dimethyl isosorbide in liquid formulation of aspirin” (priority 1979, dated 1980).
